Assay results published in PMC6019071.
Like-named read-outs stand apart in the source and are kept apart here.

Target: core CoREST complex LSD1/HDAC1/CoREST1 (LHC) (UniProt O60341)
Assay: other; inhibition of LHC peptide deacetylation

Row | IC50 [nM] | IC50 (natural protein) [nM] | Substance
1 | 630 | – | H3K9Hd containing nucleosome (146 bp mononucleosome with semisynthetic H3K4me2K9Hd)
2 | 390 | – | H3K14Hd containing nucleosome (146 bp mononucleosome with semisynthetic H3K4me2K14Hd)
3 | – | 22 | semisynthetic histone H3 H3K4me2K14Hd (from UniProt P84233 2-136)
